Protein sequences, listed by entry. Tags and fused reporters are not part of them. Residues count along the entry.
UniProt P53341, whole entry: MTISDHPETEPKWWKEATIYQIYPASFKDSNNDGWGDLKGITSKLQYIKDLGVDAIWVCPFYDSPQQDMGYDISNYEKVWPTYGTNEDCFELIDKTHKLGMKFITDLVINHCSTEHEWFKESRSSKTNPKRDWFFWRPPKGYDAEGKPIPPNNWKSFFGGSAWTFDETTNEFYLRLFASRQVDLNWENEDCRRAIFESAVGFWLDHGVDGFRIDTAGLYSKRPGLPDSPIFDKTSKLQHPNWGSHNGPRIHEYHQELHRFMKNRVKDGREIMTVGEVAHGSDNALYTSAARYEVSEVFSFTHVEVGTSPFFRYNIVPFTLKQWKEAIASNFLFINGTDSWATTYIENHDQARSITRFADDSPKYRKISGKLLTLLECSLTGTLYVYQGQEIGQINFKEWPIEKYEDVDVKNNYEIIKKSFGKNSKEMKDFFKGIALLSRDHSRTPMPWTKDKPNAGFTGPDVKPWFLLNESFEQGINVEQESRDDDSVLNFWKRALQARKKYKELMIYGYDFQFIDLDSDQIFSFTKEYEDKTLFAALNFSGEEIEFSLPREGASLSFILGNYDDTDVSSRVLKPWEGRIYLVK
UniProt P00690, 16-511 limits assumed: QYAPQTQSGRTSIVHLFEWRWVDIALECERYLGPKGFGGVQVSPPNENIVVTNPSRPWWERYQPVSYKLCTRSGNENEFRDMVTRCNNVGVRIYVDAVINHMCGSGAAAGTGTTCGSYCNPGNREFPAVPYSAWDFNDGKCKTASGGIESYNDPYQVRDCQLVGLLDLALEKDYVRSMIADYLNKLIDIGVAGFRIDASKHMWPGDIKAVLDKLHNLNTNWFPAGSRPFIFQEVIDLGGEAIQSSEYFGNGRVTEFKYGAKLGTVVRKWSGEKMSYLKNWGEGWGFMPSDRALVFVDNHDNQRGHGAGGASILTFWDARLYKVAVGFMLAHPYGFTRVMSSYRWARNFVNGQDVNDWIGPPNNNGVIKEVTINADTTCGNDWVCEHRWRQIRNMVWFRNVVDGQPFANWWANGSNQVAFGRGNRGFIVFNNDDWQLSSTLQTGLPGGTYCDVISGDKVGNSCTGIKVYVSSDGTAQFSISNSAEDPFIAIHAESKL

In publication PMC9572811, “Synthesis of Novel Benzimidazole-Based Thiazole Derivatives as Multipotent Inhibitors of α-Amylase and α-Glucosidase: In Vitro Evaluation along with Molecular Docking Study” (Molecules, 2022):

Experiments:
α-glucosidase = α-glucosidase (Saccharomyces cerevisiae, UniProt P53341); experiment: α-glucosidase inhibition assay; type: biochemical; conditions: read-out: α-Glucosidase IC50; in vitro; p-nitrophenyl glucopyranoside substrate; mean ± SEM, n=3; acarbose as standard
α-amylase = α-amylase (Sus scrofa, UniProt P00690); experiment: α-amylase inhibition assay; conditions: read-out: α-Amylase IC50; in vitro; porcine pancreatic α-amylase, starch substrate; acarbose as standard

IC50 (α-glucosidase) [µM] | IC50 (α-amylase) [µM] | Compound
17.3 | 16.4 | O=[N+]([O-])c1ccc(/C(CSc2nc3ccccc3[nH]2)=N\Nc2nc(-c3ccc(Cl)cc3)cs2)cc1
36.4 | 34.7 | O=[N+]([O-])c1ccc(/C(CSc2nc3ccccc3[nH]2)=N\Nc2nc(-c3cccc(Br)c3)cs2)cc1
25.9 | 24.4 | Cc1ccc(-c2csc(N/N=C(/CSc3nc4ccccc4[nH]3)c3ccc([N+](=O)[O-])cc3)n2)cc1
25.8 | 18.5 | O=[N+]([O-])c1ccc(/C(CSc2nc3ccccc3[nH]2)=N\Nc2nc(-c3ccc(Br)cc3)cs2)cc1

Continued, compound first:

Compound | IC50 (α-glucosidase) [µM] | IC50 (α-amylase) [µM]
O=[N+]([O-])c1ccc(/C(CSc2nc3ccccc3[nH]2)=N\Nc2nc(-c3cccc(F)c3)cs2)cc1 | 5.6 | 4.1
O=[N+]([O-])c1ccc(/C(CSc2nc3ccccc3[nH]2)=N\Nc2nc(-c3ccc(O)cc3)cs2)cc1 | 4.3 | 3.6
O=[N+]([O-])c1ccc(/C(CSc2nc3ccccc3[nH]2)=N\Nc2nc(-c3cccc([N+](=O)[O-])c3)cs2)cc1 | 29.6 | 28.4
O=[N+]([O-])c1ccc(/C(CSc2nc3ccccc3[nH]2)=N\Nc2nc(-c3ccc([N+](=O)[O-])cc3)cs2)cc1 | 19.6 | 16.4
